Amino acid sequences for entries named in this document (tags omitted). Residues count along the entry.
UniProt P43220, 24-463: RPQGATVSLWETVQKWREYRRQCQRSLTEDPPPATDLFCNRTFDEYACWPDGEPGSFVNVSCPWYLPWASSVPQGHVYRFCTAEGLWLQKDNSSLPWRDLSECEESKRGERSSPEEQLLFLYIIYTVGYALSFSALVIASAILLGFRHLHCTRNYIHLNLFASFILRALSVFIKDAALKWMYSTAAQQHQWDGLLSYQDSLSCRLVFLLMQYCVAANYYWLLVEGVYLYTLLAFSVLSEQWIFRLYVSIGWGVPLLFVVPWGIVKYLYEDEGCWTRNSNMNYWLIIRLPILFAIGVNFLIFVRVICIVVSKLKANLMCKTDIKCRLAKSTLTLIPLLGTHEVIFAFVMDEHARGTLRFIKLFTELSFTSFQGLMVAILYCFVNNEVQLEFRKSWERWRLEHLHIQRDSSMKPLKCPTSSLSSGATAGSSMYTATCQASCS

According to publication doi:10.1101/557132:

Target: human SNAP_GLP1R on CHO-K1 cells (human) (UniProt P43220)

With Exendin4(1-39) (peptide) the cAMP production (cAMP-Glo), positive control was 18.3 nM.
